Test: in vivo
Details: rat, ip

SMILES: Cc1nc(Cn2cnc3c2c(=O)n(C)c(=O)n3C)no1 [Compound 2, 3,7-dihydro-1,3-dimethyl-7-[(5-methyl-1,2,4-oxadiazole-3-yl)-methyl]-1H--purine-2,6-dione, reference compound]
- LD50: 530 mg/kg
